Results from patent US5672588A, “Purine derivatives” (priority 1995, dated 1997).

By UniProt entry, the sequences of proteins in these tests, tags left out.
UniProt P30543, whole entry: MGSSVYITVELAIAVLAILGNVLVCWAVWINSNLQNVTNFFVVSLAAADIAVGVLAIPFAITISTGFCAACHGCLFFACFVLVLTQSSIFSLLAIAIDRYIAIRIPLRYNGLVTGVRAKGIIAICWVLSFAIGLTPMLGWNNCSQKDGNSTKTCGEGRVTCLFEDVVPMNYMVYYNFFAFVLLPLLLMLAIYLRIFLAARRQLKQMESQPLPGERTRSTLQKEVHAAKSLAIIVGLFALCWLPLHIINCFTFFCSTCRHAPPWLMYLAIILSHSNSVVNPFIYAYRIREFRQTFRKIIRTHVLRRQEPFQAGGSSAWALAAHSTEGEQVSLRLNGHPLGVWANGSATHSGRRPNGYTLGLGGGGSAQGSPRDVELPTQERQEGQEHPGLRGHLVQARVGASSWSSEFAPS

Biological target: T1, adenosine A2 receptor (Rattus norvegicus, UniProt P30543)
T1 construct: from tissue
Assay: Adenosine A2 receptor binding in vitro, [3H]-CGS 21680 radioligand

- Ki: 0.134 µM
SMILES: C[C@H](Cc1ccccc1)Nc1ncnc2c1ncn2[C@@H]1O[C@H](CO)[C@@H](O)[C@H]1O [(R)-PIA, N-(1-phenyl-2-propyl)adenosine, reference compound]
